Experiments:
[1] = biological target: BIR3 domain of human XIAP (residues 238-358) (Homo sapiens (Human), UniProt P98170); test: Fluorescence polarization competitive binding to XIAP BIR3; settings: read-out: XIAP BIR3 Ki; FP, peptide probe 5 nM, XIAP BIR3 30 nM, 1 hour room temperature
[2] = biological target: BIR3 domain of human cIAP2 (residues 236-342) (Homo sapiens (Human), UniProt Q13489); test: Fluorescence polarization competitive binding to cIAP2 BIR3; settings: read-out: cIAP2 BIR3 Ki; FP, peptide probe 5 nM, cIAP2 BIR3 10 nM, 1 hour room temperature
[3] = biological target: BIR3 domain of human cIAP1 (residues 255-364) (Homo sapiens (Human), UniProt Q13490); test: Fluorescence polarization competitive binding to cIAP1 BIR3; settings: read-out: cIAP1 BIR3 Ki; FP, peptide probe 5 nM, cIAP1 BIR3 5 nM, 1 hour room temperature

Sequences of proteins named here, by UniProt entry; tags and fusion partners are left off. Residues count along the entry.
UniProt P98170, 238-358 limits assumed: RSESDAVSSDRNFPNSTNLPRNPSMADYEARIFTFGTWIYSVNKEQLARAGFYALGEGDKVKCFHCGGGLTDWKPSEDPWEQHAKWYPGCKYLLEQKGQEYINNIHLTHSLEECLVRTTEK
UniProt Q13489, 236-342 limits assumed: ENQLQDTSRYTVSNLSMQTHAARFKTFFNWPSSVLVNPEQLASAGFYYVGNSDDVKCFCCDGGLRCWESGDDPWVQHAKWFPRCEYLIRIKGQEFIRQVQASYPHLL
UniProt Q13490, 255-364 limits assumed: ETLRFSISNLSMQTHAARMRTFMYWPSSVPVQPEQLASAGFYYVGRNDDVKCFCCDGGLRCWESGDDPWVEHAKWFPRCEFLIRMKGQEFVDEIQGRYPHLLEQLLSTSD

Compound: CN[C@@H](C)C(=O)N[C@H](C(=O)N1CC(C)(C)c2[nH]c(=O)c(Cc3ccc(F)cc3F)cc21)C(C)(C)C
- Ki [1]: 55.2 nM
- Ki [2]: 3.8 nM
- Ki [3]: 1.6 nM

From patent US20250002493A1, “PYRIDONE COMPOUND AND PREPARATION METHOD THEREFOR, PHARMACEUTICAL COMPOSITION AND USE” (NANJING CHINA-AUSTRALIA INSTITUTE OF TRANSLATIONAL MEDICINE …, priority 2022, published 2025)
